Tested on: human σ1 receptor and human μ-opioid receptor
Experiment: Human σ1 receptor radioligand assay and human μ-opioid receptor radioligand assay (μ and σ1 dual binding)
Set-up: key to the marks not given beside the values
Conditions: combined class for Ki-μ ([3H]-DAMGO, CHO-K1 membranes) and Ki-σ1 ([3H](+)-pentazocine, HEK-293 membranes)

Structure (SMILES)	μ and σ1 dual binding
CC(=O)N1Cc2ccccc2C12CCN(CCc1ccccc1)CC2	++
CC(=O)Nc1cc(CCN2CCC3(CC2)c2ccccc2CCN3C(C)=O)ccn1	++
CC(=O)N1CCc2ccccc2C12CCN(CCN(C)C(=O)c1ccccc1)CC2	++
CC(=O)N1CCc2ccccc2C12CCN(CCc1ccc(C(F)(F)F)nc1)CC2	++
CC(=O)N1CCc2ccccc2C12CCN(CCc1ccccn1)CC2	++
CC(=O)N1CCc2ccccc2C12CCN(CC(O)c1ccccc1)CC2 (centres unmarked)	++
CCNC(=O)N1CCc2ccccc2C12CCN(CCc1ccncc1)CC2	++
O=C(CO)N1CCc2ccccc2C12CCN(CCc1ccccc1)CC2	++

Source: US10407428B2, “Spiro-isoquinoline-1,4′-piperidine compounds having multimodal activity against pain” (ESTEVE PHARMACEUTICALS, S.A., priority 2014, dated 2019)
